{"source": "patent US20130274212A1", "about": "“Sesterterpene Compounds and Use Thereof” (SNU R&DB FOUNDATION, priority 2010, published 2013)", "key": {"[1]": {"tested_on": "C57BL/6J mice fed with high-fat feedstuff", "assay": "Anti-diabetic efficacy in C57BL/6J mice fed with high-fat diet (glucose and insulin tolerance)", "conditions": "high-fat diet C57BL/6J mice, oral 10 mg/kg/day, last 6 weeks", "description": "In the present example, in order to verify efficacy to prevent and treat diabetes of the compound of Chemical Formula I (CMDD-X or Compound 7) according to the present invention, BKS.Cg-+Lepr^db/+Lepr^db (db/db) mice as an insulin-independent diabetes animal model and general mice (C57BL/6J) fed with high-fat feedstuff were used. After the disease animal model was orally administered with CMDD-X, the diabetes-related index between the administered group and the control group was measured to verify the efficacy as an agent for preventing and treating diabetes. BKS.Cg-+Lepr^db/+Lepr^db (db/db) mice (male, 7-week old) as type 2 diabetes animal model were purchased and used. The experiment animals were adapted to a housing environment for 1 week while pellet type general diet (lab-chow) was supplied, and then divided into 2 groups of 18 mice each by randomized block design to have similar blood sugar and body weight. […] The other organ tissues were rapidly cooled in the liquid nitrogen immediately after removal thereof, and kept at −70° C. and then analyzed. T-test was conducted with respect to the control group and the administered group, a significant difference of less than 5% (P<0.05) was determined as having have a statistical significance. […]"}, "[2]": {"tested_on": "Raw264.7 macrophage activated by LPS", "assay": "Raw264.7 macrophage activated by LPS (qRT-PCR, ELISA, NO assay, western blotting)", "description": "In order to test the antiatherogenic efficacy of the compound of Chemical Formula I (e.g., CMDD-X or Compound 7) according to the present invention, Raw264.7 macrophage activated by LPS and HUVEC endotheliocyte activated by TNF-α were used. Raw264.7 macrophage was cultured in DMEM medium within a cell incubator containing 5% carbon dioxide at 37° C. The medium contained 10% fetal bovine serum (FBS), 100 U/ml penicillin, and 100 μg/ml streptomycin. One day before compound treatment, raw264.7 cells were seeded on a 6-well plate at 50,000 cells/well. The next day, the cells were pre-treated with compound CMDD-X, for 1 hour, by the concentrations, and then were treated with 100 ng/ml LPS for 24 hours, and the qRT-PCR was conducted. TNF-α and IL-6 are cytokines involved in the occurrence of atherosclerosis, and generated mainly in the macrophage to induce an inflammatory reaction and induce leukocytes, to thereby advance atherosclerosis. […] In addition, the enzyme-linked immunosorbent assay (ELISA) test was conducted from the compound CMDD-X-treated medium.\nThe nitric oxide (NO) concentration in the medium of the raw264.7 macrophage treated in the experiment was measured. NO is generated in the macrophage or foam cell present in a lesion site where atherosclerosis is advanced. This causes oxidative stress in the blood to generate oxLDL, and is involved in the rupture of the atherosclerosis progression site. In addition, it may be seen from iNOS previously reported and the apoE-deficient mouse results that NO generated by iNOS functions as an important factor in the occurrence and progression of atherosclerosis (Detmers P A et. al., J. Immunol. 2000, 3430-3435). […] In order to confirm whether or not iNOS expression is expressed by the compound CMDD-X, western blotting was conducted with respect to Raw264.7 macrophage activated with 100 ng/ml LPS for 8 hours after a 1 hour-pretreatment. As the result, the expression of iNOS increased by LPS was reduced by the compound CMDD-X (FIG. 24)."}, "[3]": {"tested_on": "various nuclear receptors (RXR, PPAR, PXR, CAR, ER, LRH-1, GR, NGFI-B, ERR, Rev-erb, GCNF, TR, HNF4, COUP, EAR, VDR, AR, DAX-1, TLX, and VDR)", "assay": "Selectivity: antagonistic activity on various other nuclear receptors, same reporter method", "conditions": "CV-1 cells, agonists for respective receptors exchanged", "description": "Animal cell line CV-1 was used in transfection search. Cells were cultured in DMEM medium within a cell incubator containing 5% carbon dioxide at 37° C. The medium contained 10% fetal bovine serum (FBS), 100 U/ml penicillin, and 100 μg/ml streptomycin. On day 1 of the experiment, CV1 cells were seeded in a 96-well plate at 5,000 cells/well. On day 2, the seeded cells were transfected with plasmid expressing GAL-hLXRa or GAL-hLXRB, plasmid expressing luciferase gene, and plasmid expressing β-galactosidase, by using a transfection reagent, Superfect (QIAGEN). After 16 hours, the transfected cells were treated with compounds of Chemical Formula I dissolved in dimethylsulfoxide (DMSO) by the concentrations (here, the final concentration of the LXR agonist, T0901517, was 500 nM). Cells treated with dimethylsulfoxide having the final concentration of 1% were used as a negative control group. After culturing for 24 hours, the cells were lysed by using a lysis buffer, and luciferin was added thereto to measure the luciferase activity by a luminometer. After addition of an ONPG reagent, β-galactosidase activity was measured by an ELISA reader. The measured luciferase value was corrected by the activity value of β-galactosidase. […] Accordingly, it was verified that the compounds of Chemical Formula I are antagonist compounds selective to LXR."}, "[4]": {"conditions": "1 hour pre-treatment, 100 ng/ml LPS 24 hours, qRT-PCR, as concentration increased"}}, "data": [{"smiles": "CC(C)=CCC/C(C)=C/[C@@H]1CC(C)=C[C@]2(C=C(CO)[C@H]3CC(=O)C(C)=C[C@H]3O2)O1", "values": [{"measurement": "glucose tolerance: blood sugar recovery", "setting": "[1]; glucose 1 g/kg intraperitoneally", "result": "more promptly recovered as compared with the control group"}, {"measurement": "insulin tolerance test: blood sugar after insulin administration", "setting": "[1]; insulin 1 unit/kg", "result": "significantly decreased for 40 minutes after insulin administration as compared with the control group"}, {"measurement": "expression of IL-6 gene", "setting": "[2]; [4]", "result": "significantly decreased"}, {"measurement": "expression of TNF-α gene", "setting": "[2]; [4]", "result": "significantly decreased"}, {"measurement": "expression of iNOS increased by LPS", "setting": "[2]; 1 hour pretreatment, 100 ng/ml LPS 8 hours, western blotting", "result": "reduced"}, {"measurement": "IL-6 secretion", "setting": "[2]; ELISA from the treated medium", "result": "significantly reduced"}, {"measurement": "nitric oxide (NO) concentration in the medium", "setting": "[2]; NO assay, as concentration increased", "result": "significantly decreased"}, {"measurement": "antagonistic activity on the other nuclear receptors (selectivity)", "setting": "[3]", "result": "never showed antagonistic activity on the other nuclear receptors"}]}]}
